Laboratory results taken from paper PMC11334105, “Contribution of Noncovalent Recognition and Reactivity to the Optimization of Covalent Inhibitors: A Case Study on KRas^G12C” (ACS Chemical Biology, 2024).

Molecular target: KRAS^G12C (Homo sapiens, UniProt P01116, G12C)
Assay: LC-MS occupancy measurements (KI and kinact determination)
Assay type: binding
Conditions: for kinact: fit of kobs vs concentration, MS occupancy, mean ± SD, n = 2

Row | Structure (SMILES) | kinact/KI | kinact
1 | O=C(C1CN1)N1CCN(c2ncnc3cc(-c4c(O)cccc4F)c(Cl)cc23)CC1 (stereo not shown) [4a, Aziridin-2-yl(4-(6-chloro-7-(2-fluoro-6-hydroxyphenyl)quinazolin-4-yl)piperazin-1-yl)methanone] | 4.1 ± 0.3 M⁻¹ s⁻¹ | 0.091 ± 0.002 0.001 s^–1
2 | CN1CCCC1COc1nc(N2CCN(C(=O)C3CN3)CC2)c2cc(Cl)c(-c3c(O)cccc3F)cc2n1 (stereo not shown) [4b, Aziridin-2-yl(4-(6-chloro-7-(2-fluoro-6-hydroxyphenyl)-2-((1-methylpyrrolidin-2-yl)methoxy)quinazolin-4-yl)piperazin-1-yl)methanone] | 15.2 ± 4.9 M⁻¹ s⁻¹ | 1.7 ± 0.30 0.001 s^–1
